This passage reports Ke results from ChEMBL document CHEMBL2176912, “Diphenyl purine derivatives as peripherally selective cannabinoid receptor 1 antagonists” (J Med Chem, 2012).

Sequences of proteins named here, by UniProt entry; tags and fusion partners are left off.
UniProt P21554, whole entry: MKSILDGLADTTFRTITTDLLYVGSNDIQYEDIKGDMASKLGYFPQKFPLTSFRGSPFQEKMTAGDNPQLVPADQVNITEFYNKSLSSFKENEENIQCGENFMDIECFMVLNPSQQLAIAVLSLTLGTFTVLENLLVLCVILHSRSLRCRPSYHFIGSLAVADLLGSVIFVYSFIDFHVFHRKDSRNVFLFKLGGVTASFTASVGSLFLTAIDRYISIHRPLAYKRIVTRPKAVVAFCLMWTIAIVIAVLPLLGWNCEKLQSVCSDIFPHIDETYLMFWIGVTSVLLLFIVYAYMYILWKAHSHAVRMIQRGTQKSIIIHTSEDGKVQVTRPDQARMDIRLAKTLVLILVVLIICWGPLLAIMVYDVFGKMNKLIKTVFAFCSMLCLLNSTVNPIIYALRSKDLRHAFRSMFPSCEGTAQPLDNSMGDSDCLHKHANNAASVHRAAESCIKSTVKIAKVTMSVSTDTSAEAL

The test addresses Cannabinoid receptor 1 (Homo sapiens, UniProt P21554). Description: Antagonist activity at human CB1 receptor transfected in CHO-K1 cells co-expressing Galphaq16 assessed as intracellular calcium mobilization using Calcein-4 AM by fluorescence assay. It counts as functional, cell-based. The essentials: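 CHO-K1 cells engineered to coexpress human CB1 and Gαq16. Calcium flux read with fluorescent dye Calcein-4 AM on a plate reader. Antagonism measured as rightward shift of the CP55940 concentration–response curve. Ke = [ligand]/(DR−1), where DR is the ratio of CP55940 EC50 with and without test agent. Values are averages of 3–6 measurements.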
With `Clc1ccc(-n2c(-c3ccccc3Cl)nc3c(N[C@@H]4CCCNC4)ncnc32)cc1`, the Ke was 5.55 µM.

As to `CC(C)(C)OC(=O)N1CCC[C@@H](Nc2ncnc3c2nc(-c2ccccc2Cl)n3-c2ccc(Cl)cc2)C1`, the Ke is 0.326 µM.

As for `Clc1ccc(-n2c(-c3ccccc3Cl)nc3c(N[C@H]4CCCNC4)ncnc32)cc1`, the Ke was 8.41 µM.

Regarding `CC(C)(C)OC(=O)N1CCC[C@H](Nc2ncnc3c2nc(-c2ccccc2Cl)n3-c2ccc(Cl)cc2)C1`, the Ke was 3.93 µM.
